Where two headings read alike, the source gives them in different places.
Key:
[1] = Determination of the stability of KIFGSLAFL and KIFGSLAFL acetate (purity by HPLC on storage); assay type: physicochemical; details: 25° C., RH 50%; for purity of sample by high-performance liquid chromatography: sterile condition; for stability, compared in words: 10 days, samples 3 and 4 versus samples 1 and 2, sample 1 versus samples 2 and 5
From the text: The condition for detecting the purity of target peptide by the analytical high-performance liquid chromatography was as follows: high-performance liquid chromatograph: Chuangxin TongHeng LC300, stationary phase: C18-bonded silica gel (250×4.6 mm, 5 μm), mobile phase: the mixed liquor of sodium dihydrogen phosphate solution 0.1 mol/L (adjusted the pH value of phosphoric acid to 3.0) and acetonitrile (with the volume ratio of 7:3), with the flow velocity of lmL/min and the detection wavelength of 230 nm. The elution time for target peptide was 10 min, approximately.
Studied the stability of the following samples under the sterile condition at 25° C. and RH 50%: Sample 1 was the amorphous solid product of embodiment 5. Sample 2 was the solution of embodiment 4, which was diluted to approximately 1 mg/mL with dimethyl sulfoxide and filtered through the filter membrane with the aperture of 0.2 microns. Sample 3 was the solid product of embodiment 3. Sample 4 was the solid product of embodiment 3, which was dissolved in dimethyl sulfoxide, diluted to approximately 1 mg/mL and filtered through the filter membrane with the aperture of 0.2 microns. Sample 5 was the solid product of embodiment 6. The purity of each sample was detected by high-performance liquid chromatography, and the results were as follows: […]

[2] = water for injection of 25° C., constant temperature shaker

Row | Substance | purity of sample by high-performance liquid chromatography ([1]; Day 0) [%] | purity of sample by high-performance liquid chromatography ([1]; Day 5) [%] | purity of sample by high-performance liquid chromatography ([1]; Day 10) [%] | dissolving condition (dissolved completely / incompletely) ([2]; water 300 times) | dissolving time ([2]; water 300 times) | dissolving condition (dissolved completely / incompletely) ([2]; water 800 times) | dissolving time ([2]; water 800 times) | stability, compared in words [1]
1 | KIFGSLAFL.H2SO4 [Sample 5] | 99.2 | 98.7 | 98.0 | incompletely) | >30 min (dissolved | incompletely) | >30 min (dissolved | –
2 | KIFGSLAFL [Sample 3] | 98.1 | 97.6 | 97.2 | incompletely) | >30 min (dissolved | incompletely) | >30 min (dissolved | obviously inferior
3 | KIFGSLAFL acetate [Sample 2] | 99.6 | 98.9 | 98.3 | – | – | – | – | –
4 | KIFGSLAFL [Sample 4] | 98.1 | 96.5 | 94.6 | – | – | – | – | obviously inferior
